# Results published in patent publication US20250092109A1.
# Sequences of proteins named here, by UniProt entry; tags and fusion partners are left off. Residues count along the entry.
# UniProt P01589, 22-272 limits assumed: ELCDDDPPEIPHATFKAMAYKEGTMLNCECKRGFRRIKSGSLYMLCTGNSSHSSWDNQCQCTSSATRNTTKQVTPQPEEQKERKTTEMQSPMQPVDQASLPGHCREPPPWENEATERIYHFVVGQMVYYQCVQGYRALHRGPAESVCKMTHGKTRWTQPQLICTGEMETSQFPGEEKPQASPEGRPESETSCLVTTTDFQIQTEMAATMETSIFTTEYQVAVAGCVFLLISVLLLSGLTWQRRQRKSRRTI
# Target: CD25 on CD25+ cells (UniProt P01589)
substance,measurement,value
rhIL-2 (from UniProt P60568) (ligand),"EC50 (read off the curve), %pSTAT5+ of CD4+FoxP3+CD25+ cells",2 pM
